Assay results: PMC4458377 (Biochemistry, 2014)

Target: T1, BAZ2B bromodomain (Homo sapiens, UniProt Q9UIF8)
T1 sequence (Q9UIF8 1868-1972 isoform Q9UIF8-4): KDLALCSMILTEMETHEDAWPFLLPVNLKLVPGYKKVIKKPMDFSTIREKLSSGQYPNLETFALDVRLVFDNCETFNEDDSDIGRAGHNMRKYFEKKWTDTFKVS
Test: ITC of H3K14ac peptides binding to BAZ2B bromodomain

## CC(=O)NCCCC[C@H](NC(=O)CNC(=O)CNC(=O)[C@@H](NC(=O)[C@H](CO)NC(C)=O)[C@@H](C)O)C(=O)N[C@@H](C)C(=O)N1CCC[C@H]1C(=O)N[C@@H](CCCNC(=N)N)C(N)=O [Peptide 5]
  Kd: 52.4 ± 2.4 µM
